Measurements published in ChEMBL document CHEMBL1137082, “Potent and selective conformationally restricted neuronal nitric oxide synthase inhibitors” (J Med Chem, 2004).

Molecular target: T1, Nitric oxide synthase 3 (Bos taurus, UniProt P29473)
T1 sequence (P29473 whole entry): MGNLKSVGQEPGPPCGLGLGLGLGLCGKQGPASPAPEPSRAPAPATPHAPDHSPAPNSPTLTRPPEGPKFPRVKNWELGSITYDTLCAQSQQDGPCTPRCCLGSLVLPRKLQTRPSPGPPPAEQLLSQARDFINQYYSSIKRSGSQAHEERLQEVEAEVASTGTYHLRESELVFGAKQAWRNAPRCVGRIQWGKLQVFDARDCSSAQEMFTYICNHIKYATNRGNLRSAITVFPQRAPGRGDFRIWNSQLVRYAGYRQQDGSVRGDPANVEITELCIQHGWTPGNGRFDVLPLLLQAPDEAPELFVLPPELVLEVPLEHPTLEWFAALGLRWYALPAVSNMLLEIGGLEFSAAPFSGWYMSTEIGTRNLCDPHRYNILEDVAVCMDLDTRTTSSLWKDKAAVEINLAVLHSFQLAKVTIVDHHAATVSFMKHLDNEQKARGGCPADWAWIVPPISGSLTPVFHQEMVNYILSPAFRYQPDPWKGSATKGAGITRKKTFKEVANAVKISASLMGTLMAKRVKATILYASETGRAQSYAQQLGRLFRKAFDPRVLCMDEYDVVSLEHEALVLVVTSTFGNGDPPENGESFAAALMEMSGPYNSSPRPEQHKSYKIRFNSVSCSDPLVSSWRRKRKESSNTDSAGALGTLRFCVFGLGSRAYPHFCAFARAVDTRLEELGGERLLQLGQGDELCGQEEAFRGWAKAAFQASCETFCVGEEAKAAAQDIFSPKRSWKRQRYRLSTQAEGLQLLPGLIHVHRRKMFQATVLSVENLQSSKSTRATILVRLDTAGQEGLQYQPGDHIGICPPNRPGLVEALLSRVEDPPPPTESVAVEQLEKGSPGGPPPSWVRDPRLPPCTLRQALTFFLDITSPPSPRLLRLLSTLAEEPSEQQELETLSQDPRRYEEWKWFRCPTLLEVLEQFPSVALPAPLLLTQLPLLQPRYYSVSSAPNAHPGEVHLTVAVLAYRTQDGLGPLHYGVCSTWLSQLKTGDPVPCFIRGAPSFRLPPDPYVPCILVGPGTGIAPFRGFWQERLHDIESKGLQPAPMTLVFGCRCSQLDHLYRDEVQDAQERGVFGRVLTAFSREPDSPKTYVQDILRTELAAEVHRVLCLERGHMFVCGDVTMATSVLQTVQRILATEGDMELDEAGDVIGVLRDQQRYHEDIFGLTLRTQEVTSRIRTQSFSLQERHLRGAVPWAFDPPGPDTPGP
Experiment: Inhibitory activity against endothelial nitric oxide synthase (eNOS)

SMILES | IC50 [µM]
N=C(NCCC[C@H](N)C(=O)NC1CNC(C(N)=O)C1)N[N+](=O)[O-] (single isomer, unassigned) | 760
NC(=O)[C@@H]1C[C@@H](NC(=O)[C@@H](N)CCC/N=C(\N)N[N+](=O)[O-])CN1 | 880
